In patent US5418238A, “17β-substituted 4-aza-5α-androstan-3-one derivatives” (Farmitalia Carlo Erba S.R.L., priority 1992, dated 1995):

System: 5α-reductase
Assay: In vivo inhibition of 5α-reductase (testosterone-induced prostate hypertrophy in castrated rats)
Set-up: species or system rat
Details: castrated testosterone-implanted rats, once daily for 7 days, ventral prostate weight
Method: The standard test for the antiandrogenic effect in rats was used. Prepuberal 22-day-old male rats were castrated via scrotal incision under light ether anaesthesia. On the seventh day after orchiectomy, androgen replacement was performed via subcutaneous implantation of 1 cm-long Silastic® tube (Dow-Corning, model No. 602-265) filled with a mixture of 25% testosterone and 75% cholesterol. The rats were then treated orally with the tested compounds (7 animals/group), once daily for 7 consecutive days. Twenty four hours after the last dose the rats were sacrificed and the ventral prostate was removed and weighed. Control animals (testosterone controls) received the vehicle (0.5 ml/kg of 0.5% Methocel/0.4% Tween 80). One group of castrated rats was not implanted with testosterone (castrated controls).
The mean percentage of inhibition of the T-induced hypertrophic response of the prostate was calculated according to the following formula:
% inhibition=100×(WTC -WI)/(WTC -WCC)
where WTC, WCC and WI are the mean prostate weight of testosterone control, castrated control and inhibitor treated group, respectively.

CC(C)C(NC(=O)[C@H]1CC[C@H]2[C@@H]3CC[C@H]4NC(=O)C=C[C@]4(C)[C@H]3CC[C@]12C)C(=O)C(F)(F)F (stereo partly drawn) [Compound 7, N-[1,1,1-trifluoro-4-methyl-2-oxopent-3-yl]3-oxo-4-aza-5α-androst-1-ene-17β-carboxamide]
% Inhibition of prostate weight at 3 mg/kg/day p.o.: 54%
